Amino acid sequences for entries named in this document (tags omitted). A change or cut given only in a name is not applied to a line headed by its entry.
UniProt Q99572: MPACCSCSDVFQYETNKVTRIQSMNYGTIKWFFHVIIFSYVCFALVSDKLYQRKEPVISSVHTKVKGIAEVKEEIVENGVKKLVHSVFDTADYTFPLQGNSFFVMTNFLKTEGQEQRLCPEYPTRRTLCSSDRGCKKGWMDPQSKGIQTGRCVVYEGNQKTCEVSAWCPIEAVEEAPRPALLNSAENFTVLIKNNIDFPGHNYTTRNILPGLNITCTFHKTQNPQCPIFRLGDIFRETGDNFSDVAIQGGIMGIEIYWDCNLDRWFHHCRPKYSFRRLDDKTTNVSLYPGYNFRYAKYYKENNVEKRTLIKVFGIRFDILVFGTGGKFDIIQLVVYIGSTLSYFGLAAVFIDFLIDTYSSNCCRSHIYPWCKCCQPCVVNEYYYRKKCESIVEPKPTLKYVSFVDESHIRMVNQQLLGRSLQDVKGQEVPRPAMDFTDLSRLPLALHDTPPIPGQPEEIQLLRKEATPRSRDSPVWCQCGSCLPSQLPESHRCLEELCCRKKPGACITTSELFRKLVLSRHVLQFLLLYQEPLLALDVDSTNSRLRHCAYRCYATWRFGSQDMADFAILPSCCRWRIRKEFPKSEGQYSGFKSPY
UniProt Q64663: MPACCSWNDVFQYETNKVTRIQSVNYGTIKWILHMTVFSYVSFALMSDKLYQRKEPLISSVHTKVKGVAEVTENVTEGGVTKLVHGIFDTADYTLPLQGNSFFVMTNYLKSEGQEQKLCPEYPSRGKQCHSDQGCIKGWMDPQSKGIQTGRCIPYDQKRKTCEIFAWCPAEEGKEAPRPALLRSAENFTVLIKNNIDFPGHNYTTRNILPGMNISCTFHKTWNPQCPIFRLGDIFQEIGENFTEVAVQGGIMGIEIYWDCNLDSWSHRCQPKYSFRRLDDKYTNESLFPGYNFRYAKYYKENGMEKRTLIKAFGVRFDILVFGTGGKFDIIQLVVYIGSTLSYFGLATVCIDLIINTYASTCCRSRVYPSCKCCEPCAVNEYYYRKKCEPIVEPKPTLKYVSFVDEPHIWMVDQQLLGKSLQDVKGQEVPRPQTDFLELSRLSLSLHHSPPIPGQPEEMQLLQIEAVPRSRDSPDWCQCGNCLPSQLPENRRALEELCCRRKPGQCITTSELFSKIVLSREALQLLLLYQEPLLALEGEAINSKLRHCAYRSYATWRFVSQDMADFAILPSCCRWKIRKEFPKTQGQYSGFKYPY

According to patent US10150766B2, “P2X7 modulators” (Jansssen Pharmaceutica NV, priority 2014, dated 2018):

Legend:
P2X7 [1] = molecular target: T1, P2X7 (Homo sapiens (Human), UniProt Q99572); assay: Radioligand binding ([3H]A-804598) to membranes of human P2X7-1321N1 cells; conditions: human P2X7-1321N1 membranes, tracer tritiated A-804598, 1 hour at 4° C.
Experimental: (§1) human or rat P2X7-1321N1 cells were collected and frozen @ −80° C. On the day of the experiment, cell membrane preparations were made according to standard published methods. The total assay volume was 100 μl: 10 μl compound (10×)+(b) 40 μl tracer (2.5×)+50 μl membrane (2×). The tracer used for the assay was tritiated A-804598. The compound can be prepared as described in the literature. (Donnelly-Roberts, D. Neuropharmacology 2008, 56 (1), 223-229.) Compounds, tracer and membranes were incubated for 1 hour @ 4° C. The assay was terminated by filtration (GF/B filters pre-soaked with 0.3% PEI) and washed with washing buffer (Tris-HCl 50 mM). The IC50 generated in the binding assay was corrected for tracer concentration and affinity of the tracer to derive at the affinity (Ki) of the test compounds. The data are presented in Table 2 under the headings: P2X7 human Ki (μM) and P2X7 rat Ki (μM). Data are analyzed and graphed on Graphpad Prism 5.

P2X7 [2] = molecular target: T1, P2X7; assay: P2X7 antagonism in human whole blood, IL-1β release (LPS + Bz-ATP, ELISA); type: cell-based; conditions: Human Whole Blood IC50 (μM), LPS 30 ng/ml + Bz-ATP 1 mM
rat P2X7 = rat P2X7 (Rattus norvegicus (Rat), UniProt Q64663); assay: P2X7 antagonism in recombinant rat P2X7 cells (column headed P2X7 Rat IC50); type: binding
Experimental: The in vitro affinity of the compounds of the invention for the rat and human P2X7 receptor was determined using a human peripheral blood mononuclear cells (PBMCs), a human whole blood assay, a Ca^2+ flux and radioligand binding assay in recombinant human P2X7 cells and recombinant rat P2X7 cells. In Tables 2, when the data cell has been left blank, it is intended to mean that the compound was not tested in that assay. The data represented in Tables 2 may represent a value from a single determination or when the experiment was run more than once, the data represents the average from between 2-12 runs.
as §1, with “The IC50 generated in the binding assay was corrected for tracer concentration and affinity of the tracer to derive at the affinity (Ki) of the test compounds. The data are presented in Table 2 under the headings: P2X7 human Ki (μM) and P2X7 rat Ki (μM).” left out

Row | Structure (SMILES) | Ki (P2X7 [1]) [nM] | IC50 (P2X7 [2]) [µM] | IC50 (rat P2X7) [nM]
1 | Cc1nc(-c2ccn[nH]2)c2c(n1)C1CCCC(C2)N1C(=O)c1cccc(C(F)(F)F)c1Cl (centres unmarked) [Example 2, (2-chloro-3-(trifluoromethyl)phenyl)(2-methyl-4-(1H-pyrazol-5-yl)-5,6,7,8,9,10-hexahydro-6,10-epiminocycloocta[d]pyrimidin-11-yl)methanone] | 22.4 | – | –
2 | Cc1nc(-c2ccn[nH]2)c2c(n1)[C@@H]1CCC[C@H](C2)N1C(=O)c1cccc(C(F)(F)F)c1Cl [Example 3, (2-chloro-3-(trifluoromethyl)phenyl)((6R,10S)-2-methyl-4-(1H-pyrazol-5-yl)-5,6,7,8,9,10-hexahydro-6,10-epiminocycloocta[d]pyrimidin-11-yl)methanone] | – | 1.11 | –
3 | Cc1nc(-c2ccn[nH]2)c2c(n1)[C@@H]1CCC[C@H](C2)N1C(=O)c1cccc(C(F)(F)F)c1F [Example 8, (2-fluoro-3-(trifluoromethyl)phenyl)((6R,10S)-2-methyl-4-(1H-pyrazol-5-yl)-5,6,7,8,9,10-hexahydro-6,10-epiminocycloocta[d]pyrimidin-11-yl)methanone] | – | 1.56 | –
4 | Cc1nc(-c2ccc(F)cc2)c2c(n1)[C@@H]1CCC[C@H](C2)N1C(=O)c1ccnc(C(F)(F)F)c1Cl [Example 18, (3-chloro-2-(trifluoromethyl)pyridin-4-yl)((6R,10S)-4-(4-fluorophenyl)-2-methyl-5,6,7,8,9,10-hexahydro-6,10-epiminocycloocta[d]pyrimidin-11-yl)methanone] | – | 12.1 | –
5 | Cc1nc(-c2ccn[nH]2)c2c(n1)[C@H]1CCC[C@@H](C2)N1C(=O)c1cccc(C(F)(F)F)c1Cl [Example 19, (2-chloro-3-(trifluoromethyl)phenyl)((6S,10R)-2-methyl-4-(1H-pyrazol-5-yl)-5,6,7,8,9,10-hexahydro-6,10-epiminocycloocta[d]pyrimidin-11-yl)methanone] | 33.1 | 0.055 | –
6 | Cc1nc(-c2ccn[nH]2)c2c(n1)[C@H]1CCC[C@@H](C2)N1C(=O)c1ccc(Cl)c(F)c1Cl [Example 23, (2,4-dichloro-3-fluorophenyl)((6S,10R)-2-methyl-4-(1H-pyrazol-5-yl)-5,6,7,8,9,10-hexahydro-6,10-epiminocycloocta[d]pyrimidin-11-yl)methanone] | – | – | 484
7 | Cc1nc(-c2ccn[nH]2)c2c(n1)[C@H]1CCC[C@@H](C2)N1C(=O)c1cccc(C(F)(F)F)c1F [Example 26, (2-fluoro-3-(trifluoromethyl)phenyl)((6S,10R)-2-methyl-4-(1H-pyrazol-5-yl)-5,6,7,8,9,10-hexahydro-6,10-epiminocycloocta[d]pyrimidin-11-yl)methanone] | 63.1 | 0.03 | –
8 | Cc1nc(-c2cnn(C)c2)c2c(n1)[C@H]1CCC[C@@H](C2)N1C(=O)c1cccc(C(F)(F)F)c1Cl [Example 30, (2-chloro-3-(trifluoromethyl)phenyl)((6S,10R)-2-methyl-4-(1-methyl-1H-pyrazol-4-yl)-5,6,7,8,9,10-hexahydro-6,10-epiminocycloocta[d]pyrimidin-11-yl)methanone] | 251 | 0.485 | –
9 | Cc1nc(-c2ncccn2)c2c(n1)[C@H]1CCC[C@@H](C2)N1C(=O)c1cccc(C(F)(F)F)c1C [Example 43, (2-methyl-3-(trifluoromethyl)phenyl)((6S,10R)-2-methyl-4-(pyrimidin-2-yl)-5,6,7,8,9,10-hexahydro-6,10-epiminocycloocta[d]pyrimidin-11-yl)methanone] | 126 | 0.098 | –
10 | Cc1nc(-c2cnccn2)c2c(n1)[C@H]1CCC[C@@H](C2)N1C(=O)c1cccc(Cl)c1Cl [Example 48, (2,3-dichlorophenyl)((6S,10R)-2-methyl-4-(pyrazin-2-yl)-5,6,7,8,9,10-hexahydro-6,10-epiminocycloocta[d]pyrimidin-11-yl)methanone] | 25.1 | 0.015 | –
11 | Cc1nc(-c2cnccn2)c2c(n1)[C@H]1CCC[C@@H](C2)N1C(=O)c1ccnc(C(F)(F)F)c1Cl [Example 49, (3-chloro-2-(trifluoromethyl)pyridin-4-yl)((6S,10R)-2-methyl-4-(pyrazin-2-yl)-5,6,7,8,9,10-hexahydro-6,10-epiminocycloocta[d]pyrimidin-11-yl)methanone] | 200 | 1 | –
12 | Cc1nc(-c2ccc(F)cc2)c2c(n1)[C@H]1CCC[C@@H](C2)N1C(=O)c1ccnc(C(F)(F)F)c1Cl [Example 52, (3-chloro-2-(trifluoromethyl)pyridin-4-yl)((6S,10R)-4-(4-fluorophenyl)-2-methyl-5,6,7,8,9,10-hexahydro-6,10-epiminocycloocta[d]pyrimidin-11-yl)methanone] | 60.3 | 0.433 | –
13 | Cc1nc(-c2ccc(F)cc2)c2c(n1)[C@H]1CCC[C@@H](C2)N1C(=O)c1ccc(Cl)c(F)c1Cl [Example 54, (2,4-dichloro-3-fluorophenyl)((6S,10R)-4-(4-fluorophenyl)-2-methyl-5,6,7,8,9,10-hexahydro-6,10-epiminocycloocta[d]pyrimidin-11-yl)methanone] | 72.4 | 0.054 | –
14 | Cc1nc(-c2ccccn2)c2c(n1)[C@H]1CCC[C@@H](C2)N1C(=O)c1ccnc(C(F)(F)F)c1Cl [Example 61, (3-chloro-2-(trifluoromethyl)pyridin-4-yl)((6S,10R)-2-methyl-4-(pyridin-2-yl)-5,6,7,8,9,10-hexahydro-6,10-epiminocycloocta[d]pyrimidin-11-yl)methanone] | 93.3 | 0.179 | –
